# Experimental data from patent US6500466B2, “Chlorhexidine formulations, new chlorhexidine salts, solutions containing these and their use” (Degussa AG, priority 1998, dated 2002).
# Experiment: Solubility in water / aqueous solutions of chlorhexidine and its salts
# Format: physicochemical
# Details: salt of chlorhexidine base with the named acid or lactone
substance,measurement,value
chlorhexidine ascorbate,solubility in water of chlorhexidine salt,very soluble in water
